{
  "sequences": {"note": "By UniProt entry, the sequences of proteins in these tests, tags left out. Residues count along the entry.", "UniProt P10636, 623-708 limits assumed": "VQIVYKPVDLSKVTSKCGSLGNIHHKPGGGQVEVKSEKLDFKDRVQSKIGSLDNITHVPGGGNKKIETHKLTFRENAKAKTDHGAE", "UniProt P10636, 623-695 limits assumed": "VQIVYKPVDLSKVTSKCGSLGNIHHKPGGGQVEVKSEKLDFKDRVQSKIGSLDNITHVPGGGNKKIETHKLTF"},
  "source": "paper PMC8041708",
  "about": "(European Journal of Nuclear Medicine and Molecular Imaging, 2020)",
  "conditions_in_all_cases": "tested as the radiolabelled form",
  "key": {"[1]": {"biological_target": "T1, tau deposits in AD brain tissue (Homo sapiens, UniProt P10636)", "assay": "Saturation binding assay with ^3H-MK6240 in AD brain homogenates"}, "[2]": {"biological_target": "T1, tau deposits in AD brain tissue", "assay": "Regional distribution of ^3H-MK6240 binding in AD and control brain homogenates"}, "[3]": {"biological_target": "T1, tau deposits in AD brain tissue", "assay": "Autoradiography of ^3H-MK6240 on large frozen brain sections"}},
  "data": [
    {"molecule": "Nc1c(F)ccc2cnc(-n3ccc4ccncc43)cc12", "note": "[MK6240]", "values": [
      {"measurement": "Bmax", "setting": "[1]; parietal cortex of one AD brain (case 1, EOAD)", "result": 154.7, "unit": "fmol/mg"},
      {"measurement": "Bmax", "setting": "[1]; temporal cortices of two AD cases, ^3H-MK6240 0.05-2 nM, 90 min, 37 °C", "result": 59.2, "unit": "fmol/mg"},
      {"measurement": "^3H-MK6240 binding in AD brains versus control brains", "setting": "[2]; frontal, parietal and temporal cortices and hippocampus, 0.5 nM, p < 0.0001", "result": "statistically significantly higher"},
      {"measurement": "^3H-MK6240 binding in EOAD versus LOAD and control tissue", "setting": "[2]; frontal, parietal and temporal cortices, p < 0.0001", "result": "significantly higher"},
      {"measurement": "^3H-MK6240 specific binding in control brains", "setting": "[2]; seven brain regions of all the control brains, 0.5 nM", "result": "low specific binding"},
      {"measurement": "^3H-MK6240 binding in AD brains", "setting": "[2]; thalamus, caudate nucleus and cerebellum, 0.5 nM", "result": "No or low binding"},
      {"measurement": "Specific binding", "setting": "[3]; AD patient A, cingulate gyrus", "result": 99.9, "unit": "fmol/mg tissue"},
      {"measurement": "Specific binding", "setting": "[3]; AD patient A, entorhinal cortex", "result": 90.2, "unit": "fmol/mg tissue"},
      {"measurement": "Specific binding", "setting": "[3]; AD patient A, frontal cortex", "result": 109.2, "unit": "fmol/mg tissue"},
      {"measurement": "Specific binding", "setting": "[3]; AD patient A, fusiform gyrus", "result": 119.0, "unit": "fmol/mg tissue"},
      {"measurement": "Specific binding", "setting": "[3]; AD patient A, hippocampus", "result": 42.4, "unit": "fmol/mg tissue"},
      {"measurement": "Specific binding", "setting": "[3]; AD patient A, insula", "result": 24.0, "unit": "fmol/mg tissue"},
      {"measurement": "Specific binding", "setting": "[3]; AD patient A, temporal cortex", "result": 49.6, "unit": "fmol/mg tissue"},
      {"measurement": "Specific binding", "setting": "[3]; AD patient B, cingulate gyrus", "result": 64.9, "unit": "fmol/mg tissue"},
      {"measurement": "Specific binding", "setting": "[3]; AD patient B, entorhinal cortex", "result": 128.4, "unit": "fmol/mg tissue"},
      {"measurement": "Specific binding", "setting": "[3]; AD patient B, frontal cortex", "result": 45.6, "unit": "fmol/mg tissue"},
      {"measurement": "Specific binding", "setting": "[3]; AD patient B, fusiform gyrus", "result": 115.5, "unit": "fmol/mg tissue"},
      {"measurement": "Specific binding", "setting": "[3]; AD patient B, hippocampus", "result": 81.0, "unit": "fmol/mg tissue"},
      {"measurement": "Specific binding", "setting": "[3]; AD patient B, insula", "result": 32.8, "unit": "fmol/mg tissue"},
      {"measurement": "Specific binding", "setting": "[3]; AD patient B, temporal cortex", "result": 216.6, "unit": "fmol/mg tissue"},
      {"measurement": "Binding in control brain section", "setting": "[3]; control, total and NSP sections", "result": "Almost no binding"}
    ]}
  ]
}
